According to US6613211B1, “Capillary electrokinesis based cellular assays” (Aclara BioSciences, Inc., priority 1999, dated 2003):

Biological target: T1, fMLP receptor (Homo sapiens, UniProt P21462)
T1 sequence (P21462 1-350): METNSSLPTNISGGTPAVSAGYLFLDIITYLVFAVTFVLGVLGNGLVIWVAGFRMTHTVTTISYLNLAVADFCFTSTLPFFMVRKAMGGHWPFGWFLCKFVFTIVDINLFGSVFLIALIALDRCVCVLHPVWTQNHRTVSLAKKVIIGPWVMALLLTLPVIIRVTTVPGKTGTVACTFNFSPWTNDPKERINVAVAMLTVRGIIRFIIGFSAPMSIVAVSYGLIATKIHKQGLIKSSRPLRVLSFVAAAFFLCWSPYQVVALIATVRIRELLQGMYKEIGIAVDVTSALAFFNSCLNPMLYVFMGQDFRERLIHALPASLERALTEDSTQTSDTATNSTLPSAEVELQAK
Experiment: Capillary cytometric competition of labeled fMLPK binding to cells with a high level of fMLP receptor (syringe pump)
Conditions: 2.5 mM of the ligand; labeled ligand 4 nM
Method: In the next study, pumping means was employed to move cells through a capillary. The cells were cultured cells having a high level of the fMLP receptor on the surface. The buffer solution was 140 mM NaCl, 1 mM KH2PO4, 5 mM Na2HPO4, 1.5 mM CaCl2, 0.3 mM MgSO4, 1 mM MgCl2, 0.2% BSA. The cell concentration in the reservoir was 10^6/ml and the receptor concentration was 413 pM. The labeled ligand was fluorescein or Cy-5 labeled fMLPK (N-formyl-Met-Leu-Phe-Lys) which competed with fMLP for receptor. […] The device was comprised of a reservoir having a volume of 500 μl into which was introduced a capillary having an I.D. of 100 μm. In place of an electroosmotic pump, a syringe pump operating at 500 μl/min applied to the other end of the capillary was employed. The reading was taken at about 100 mm from the capillary inlet. The results are shown in FIGS. 4 and 5, where TR stands for tracer, RC refers to receptor and TRC refers to both Tracer and Receptor.
In the following study using concentrations of the fMLPK of 0, 2.5 nM, 250 nM and 2.5 μM, following results were observed, respectively, reported as total peak height: 33, 19, <1, 0.

signal (peaks of labeled ligand bound to cells): substantially no signal
Substance: fMLP
